According to paper PMC11836371, “Virtual fragment screening for DNA repair inhibitors in vast chemical space” (Nature Communications, 2025):
“And” between values parts separate entries of the source, which are not always exact repeats. Identical values can stand only once.

The chains behind the UniProt entries cited, without tags or fusion partners.
UniProt O15527, whole entry: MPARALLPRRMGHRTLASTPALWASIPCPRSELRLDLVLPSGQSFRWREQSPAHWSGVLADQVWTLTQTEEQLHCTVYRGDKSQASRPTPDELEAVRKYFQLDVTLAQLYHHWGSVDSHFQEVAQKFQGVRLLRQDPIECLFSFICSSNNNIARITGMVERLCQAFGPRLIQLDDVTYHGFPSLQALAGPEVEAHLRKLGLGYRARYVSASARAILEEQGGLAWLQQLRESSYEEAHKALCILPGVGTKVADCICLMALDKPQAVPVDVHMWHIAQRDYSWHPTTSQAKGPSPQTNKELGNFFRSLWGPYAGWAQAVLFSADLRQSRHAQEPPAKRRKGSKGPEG

What was measured:
[1] = Caco-2 cell permeability assay; assay type: in vitro ADME; conditions: human, Caco-2, pH 7.4
Procedure: Prior to the experiment a drug solution of 10 µM was prepared and warmed to 37 °C. The Caco-2 filters were washed with pre-warmed HBSS prior to the experiment, and thereafter the experiment was started by applying the donor solution on the apical or basolateral side. The transport experiments were carried out at pH 7.4 in both the apical and basolateral chamber. The experiments were performed at 37 °C and with a stirring rate of 500 rpm. The receiver compartment was sampled at 15, 30, and 60 min, and at 60 min also a final sample from the donor chamber was taken to calculate the mass balance of the compound. The samples (100 µL) were transferred to a 96-well plate containing 100 µL methanol and Warfarin as IS and was sealed until analyzed by liquid chromatography coupled to triple quadrupole mass spectrometry (LC-MS/MS).

[2] = target: T1, OGG1-GFP in U2OS cells (Homo sapiens, UniProt O15527); test: Laser microirradiation assay (OGG1-GFP recruitment to DNA damage sites); assay type: cell-based; conditions: 10uM TH5487; for relative OGG1-GFP intensity at laser microirradiation site (Figure3E), normalised to time 0: one column per replicate; for OGG1-GFP recruitment, relative intensity normalised to time 0 (Figure3E): individual replicates
T1 construct: expressed in transfected cells

O=C(Nc1ccc(I)cc1)N1CCC(n2c(=O)[nH]c3c(Br)cccc32)CC1 [TH5487]
efflux ratio at 60 min, 10 µM [1]: 1.16
relative OGG1-GFP intensity at laser microirradiation site (Figure3E), normalised to time 0 ([2]; time 44 s): 1.31 (2×) and 1.34 and 1.29 and 1.22 and 1.38 and 1.3 and 1.42 and 1.18 and 1.24 and 1.39 and 1.32 and 1.26 and 1.4 and 1.43
relative OGG1-GFP intensity at laser microirradiation site (Figure3E), normalised to time 0 ([2]; time 46 s): 1.33 (2×) and 1.34 (2×) and 1.28 and 1.23 and 1.4 and 1.44 (2×) and 1.2 and 1.25 and 1.38 and 1.24 and 1.32 and 1.39
relative OGG1-GFP intensity at laser microirradiation site (Figure3E), normalised to time 0 ([2]; time 48 s): 1.34 (2×) and 1.31 and 1.25 (2×) and 1.38 and 1.3 (2×) and 1.44 and 1.21 and 1.4 (2×) and 1.32 and 1.26 and 1.43
relative OGG1-GFP intensity at laser microirradiation site (Figure3E), normalised to time 0 ([2]; time 50 s): 1.34 and 1.33 (3×) and 1.29 and 1.23 and 1.39 and 1.43 (2×) and 1.2 and 1.24 and 1.38 and 1.27 and 1.3 and 1.41
relative OGG1-GFP intensity at laser microirradiation site (Figure3E), normalised to time 0 ([2]; time 52 s): 1.33 (4×) and 1.35 and 1.28 and 1.23 and 1.38 and 1.42 and 1.21 and 1.25 and 1.41 and 1.27 and 1.4 and 1.47
relative OGG1-GFP intensity at laser microirradiation site (Figure3E), normalised to time 0 ([2]; time 54 s): 1.34 (2×) and 1.35 and 1.29 and 1.25 and 1.41 (3×) and 1.2 and 1.24 and 1.39 and 1.32 (2×) and 1.26 and 1.45
relative OGG1-GFP intensity at laser microirradiation site (Figure3E), normalised to time 0 ([2]; time 56 s): 1.33 (3×) and 1.3 and 1.23 and 1.38 and 1.34 and 1.43 and 1.2 and 1.26 (2×) and 1.39 and 1.31 and 1.4 and 1.44
relative OGG1-GFP intensity at laser microirradiation site (Figure3E), normalised to time 0 ([2]; time 58 s): 1.33 and 1.34 and 1.3 and 1.23 and 1.39 and 1.31 (3×) and 1.42 and 1.2 and 1.26 and 1.4 and 1.27 and 1.37 and 1.45
relative OGG1-GFP intensity at laser microirradiation site (Figure3E), normalised to time 0 ([2]; time 60 s): 1.33 (2×) and 1.32 (2×) and 1.24 (2×) and 1.4 (2×) and 1.31 and 1.44 (2×) and 1.19 and 1.26 and 1.3 and 1.39
relative OGG1-GFP intensity at laser microirradiation site (Figure3E), normalised to time 0 ([2]; time 62 s): 1.33 (2×) and 1.29 and 1.24 and 1.38 and 1.31 and 1.43 (2×) and 1.2 and 1.26 and 1.39 and 1.32 and 1.25 and 1.3 and 1.4
relative OGG1-GFP intensity at laser microirradiation site (Figure3E), normalised to time 0 ([2]; time 64 s): 1.33 (3×) and 1.29 and 1.24 (2×) and 1.38 and 1.44 and 1.21 and 1.4 and 1.32 (2×) and 1.26 and 1.37 and 1.45
relative OGG1-GFP intensity at laser microirradiation site (Figure3E), normalised to time 0 ([2]; time 66 s): 1.33 (4×) and 1.3 and 1.25 (3×) and 1.39 (2×) and 1.46 and 1.22 and 1.32 and 1.37 and 1.45
relative OGG1-GFP intensity at laser microirradiation site (Figure3E), normalised to time 0 ([2]; time 68 s): 1.33 (2×) and 1.34 and 1.29 and 1.24 and 1.37 and 1.31 and 1.43 and 1.2 and 1.25 (2×) and 1.4 and 1.32 and 1.38 and 1.45
relative OGG1-GFP intensity at laser microirradiation site (Figure3E), normalised to time 0 ([2]; time 70 s): 1.35 and 1.32 (2×) and 1.29 and 1.24 and 1.38 and 1.31 and 1.43 (2×) and 1.2 and 1.25 and 1.39 (2×) and 1.26 and 1.3
relative OGG1-GFP intensity at laser microirradiation site (Figure3E), normalised to time 0 ([2]; time 72 s): 1.33 and 1.31 and 1.29 and 1.24 and 1.37 and 1.32 (2×) and 1.44 (2×) and 1.21 and 1.25 (2×) and 1.38 and 1.3 and 1.36
relative OGG1-GFP intensity at laser microirradiation site (Figure3E), normalised to time 0 ([2]; time 74 s): 1.34 and 1.31 (2×) and 1.28 and 1.23 and 1.39 and 1.32 (2×) and 1.43 and 1.2 and 1.25 and 1.4 and 1.24 and 1.37 and 1.46
relative OGG1-GFP intensity at laser microirradiation site (Figure3E), normalised to time 0 ([2]; time 76 s): 1.34 (2×) and 1.31 and 1.24 (2×) and 1.37 and 1.32 (3×) and 1.41 and 1.2 and 1.25 and 1.39 and 1.38 and 1.47
relative OGG1-GFP intensity at laser microirradiation site (Figure3E), normalised to time 0 ([2]; time 78 s): 1.34 and 1.31 (3×) and 1.24 (2×) and 1.37 and 1.33 and 1.42 and 1.19 and 1.25 and 1.38 (2×) and 1.3 and 1.44
relative OGG1-GFP intensity at laser microirradiation site (Figure3E), normalised to time 0 ([2]; time 80 s): 1.33 (2×) and 1.34 and 1.32 (3×) and 1.24 (2×) and 1.37 and 1.4 and 1.21 and 1.25 and 1.38 and 1.36 and 1.43
relative OGG1-GFP intensity at laser microirradiation site (Figure3E), normalised to time 0 ([2]; time 82 s): 1.33 (2×) and 1.31 (2×) and 1.26 and 1.36 (2×) and 1.42 and 1.19 and 1.24 (2×) and 1.39 and 1.32 (2×) and 1.43
relative OGG1-GFP intensity at laser microirradiation site (Figure3E), normalised to time 0 ([2]; time 84 s): 1.33 and 1.29 and 1.31 (4×) and 1.24 (2×) and 1.36 (2×) and 1.41 and 1.19 and 1.25 and 1.39 and 1.44
relative OGG1-GFP intensity at laser microirradiation site (Figure3E), normalised to time 0 ([2]; time 86 s): 1.34 and 1.3 (2×) and 1.32 (2×) and 1.24 (2×) and 1.39 and 1.33 and 1.41 and 1.2 and 1.22 and 1.42 and 1.38 and 1.44
relative OGG1-GFP intensity at laser microirradiation site (Figure3E), normalised to time 0 ([2]; time 88 s): 1.34 and 1.32 (2×) and 1.31 (3×) and 1.25 and 1.37 and 1.42 (2×) and 1.19 and 1.23 and 1.39 (2×) and 1.24
relative OGG1-GFP intensity at laser microirradiation site (Figure3E), normalised to time 0 ([2]; time 90 s): 1.34 and 1.32 and 1.31 (3×) and 1.24 (2×) and 1.38 and 1.33 and 1.39 and 1.2 and 1.4 and 1.23 and 1.37 and 1.43
relative OGG1-GFP intensity at laser microirradiation site (Figure3E), normalised to time 0 ([2]; time 92 s): 1.33 (2×) and 1.29 and 1.31 (2×) and 1.24 and 1.38 and 1.41 and 1.2 and 1.25 and 1.39 and 1.23 and 1.32 and 1.35 and 1.45
OGG1-GFP recruitment, relative intensity normalised to time 0 (Figure3E) ([2]; time 94 s): 1.34 and 1.31 and 1.32 and 1.24 and 1.37 (2×) and 1.33 (2×) and 1.42 and 1.2 and 1.23 and 1.39 and 1.22 and 1.3 and 1.43
OGG1-GFP recruitment, relative intensity normalised to time 0 (Figure3E) ([2]; time 96 s): 1.34 and 1.3 (2×) and 1.22 and 1.37 and 1.31 (2×) and 1.42 and 1.18 and 1.23 (2×) and 1.38 and 1.32 and 1.36 and 1.41
OGG1-GFP recruitment, relative intensity normalised to time 0 (Figure3E) ([2]; time 98 s): 1.32 (4×) and 1.29 and 1.25 and 1.38 (2×) and 1.43 (2×) and 1.19 and 1.23 and 1.21 and 1.31 and 1.36
OGG1-GFP recruitment, relative intensity normalised to time 0 (Figure3E) ([2]; time 100 s): 1.34 and 1.31 (2×) and 1.33 (2×) and 1.24 and 1.36 and 1.42 and 1.19 and 1.23 (2×) and 1.37 (2×) and 1.32 and 1.43
OGG1-GFP recruitment, relative intensity normalised to time 0 (Figure3E) ([2]; time 102 s): 1.33 and 1.3 and 1.31 (2×) and 1.24 and 1.37 (2×) and 1.32 (2×) and 1.41 and 1.2 and 1.23 and 1.4 and 1.22 and 1.44
OGG1-GFP recruitment, relative intensity normalised to time 0 (Figure3E) ([2]; time 104 s): 1.33 and 1.3 (2×) and 1.24 and 1.37 and 1.28 and 1.41 and 1.18 and 1.23 and 1.38 and 1.31 (2×) and 1.21 and 1.36 and 1.42
OGG1-GFP recruitment, relative intensity normalised to time 0 (Figure3E) ([2]; time 106 s): 1.33 and 1.3 (2×) and 1.31 (2×) and 1.24 and 1.37 and 1.41 (2×) and 1.19 and 1.22 (2×) and 1.38 and 1.32 and 1.35
OGG1-GFP recruitment, relative intensity normalised to time 0 (Figure3E) ([2]; time 108 s): 1.31 and 1.29 (2×) and 1.3 (2×) and 1.25 and 1.39 and 1.41 (2×) and 1.18 and 1.22 (2×) and 1.38 and 1.32 and 1.37
OGG1-GFP recruitment, relative intensity normalised to time 0 (Figure3E) ([2]; time 110 s): 1.32 (2×) and 1.3 (2×) and 1.24 (2×) and 1.36 and 1.4 and 1.2 and 1.38 and 1.31 and 1.23 and 1.33 and 1.37 and 1.41
OGG1-GFP recruitment, relative intensity normalised to time 0 (Figure3E) ([2]; time 112 s): 1.31 (2×) and 1.29 and 1.28 and 1.23 (2×) and 1.36 and 1.39 and 1.19 and 1.4 and 1.3 and 1.22 and 1.32 and 1.37 and 1.42
OGG1-GFP recruitment, relative intensity normalised to time 0 (Figure3E) ([2]; time 114 s): 1.33 and 1.3 (3×) and 1.32 and 1.25 and 1.36 (2×) and 1.4 (3×) and 1.18 and 1.24 and 1.21 and 1.31
OGG1-GFP recruitment, relative intensity normalised to time 0 (Figure3E) ([2]; time 116 s): 1.32 and 1.3 (3×) and 1.31 and 1.24 and 1.38 (2×) and 1.39 and 1.18 and 1.22 and 1.21 and 1.33 and 1.36 and 1.42
OGG1-GFP recruitment, relative intensity normalised to time 0 (Figure3E) ([2]; time 118 s): 1.31 (2×) and 1.3 (2×) and 1.23 and 1.36 and 1.32 (2×) and 1.4 and 1.17 and 1.24 and 1.38 and 1.22 and 1.35 and 1.42
OGG1-GFP recruitment, relative intensity normalised to time 0 (Figure3E) ([2]; time 120 s): 1.29 (2×) and 1.3 (3×) and 1.22 and 1.36 (2×) and 1.38 (2×) and 1.19 and 1.25 and 1.23 and 1.33 and 1.4
